These are literature values, as cited in patent US7001892B1, “Pharmaceutical materials and methods for their preparation and use” (Purdue Research Foundation, priority 1999, dated 2006).

The conditions of series [1]: interferon alfa-2a; cited from earlier work.
For series [2] the following is noted: cited from earlier work.

As for Roferon-A, the specific activity result in series [1] was “Additional Information: Cost of therapy is $59,200 (28 mg protein over 1 year). Specific activity is 200 million international units per mg protein”.
For Avonex, the “storage time of lyophilized powder” value in series [2] (at 25° C.) is “Formulation: Lyophilized powder (stored refrigerated or at 25 °C for < 30 days) which is reconstituted”. Also, the “reconstituted solution stable for” value in series [2] (reconstituted with sterile water, refrigerated temperatures) is listed as “approximately 7.3 (recon solution is stable for 6 hours at refrigerated temperatures). Weekly intramuscular”.
